# Results from patent publication US9216999B2, “Substituted pyrrolo[2,3-h][1,6]naphthyridines and compositions thereof as JAK inhibitors” (priority 2011, dated 2015).
# Chains of the proteins cited; added tags and fusions are not shown. Lines headed by an entry give the natural chain unless they say otherwise; changes in a name come on top.
# UniProt P52333: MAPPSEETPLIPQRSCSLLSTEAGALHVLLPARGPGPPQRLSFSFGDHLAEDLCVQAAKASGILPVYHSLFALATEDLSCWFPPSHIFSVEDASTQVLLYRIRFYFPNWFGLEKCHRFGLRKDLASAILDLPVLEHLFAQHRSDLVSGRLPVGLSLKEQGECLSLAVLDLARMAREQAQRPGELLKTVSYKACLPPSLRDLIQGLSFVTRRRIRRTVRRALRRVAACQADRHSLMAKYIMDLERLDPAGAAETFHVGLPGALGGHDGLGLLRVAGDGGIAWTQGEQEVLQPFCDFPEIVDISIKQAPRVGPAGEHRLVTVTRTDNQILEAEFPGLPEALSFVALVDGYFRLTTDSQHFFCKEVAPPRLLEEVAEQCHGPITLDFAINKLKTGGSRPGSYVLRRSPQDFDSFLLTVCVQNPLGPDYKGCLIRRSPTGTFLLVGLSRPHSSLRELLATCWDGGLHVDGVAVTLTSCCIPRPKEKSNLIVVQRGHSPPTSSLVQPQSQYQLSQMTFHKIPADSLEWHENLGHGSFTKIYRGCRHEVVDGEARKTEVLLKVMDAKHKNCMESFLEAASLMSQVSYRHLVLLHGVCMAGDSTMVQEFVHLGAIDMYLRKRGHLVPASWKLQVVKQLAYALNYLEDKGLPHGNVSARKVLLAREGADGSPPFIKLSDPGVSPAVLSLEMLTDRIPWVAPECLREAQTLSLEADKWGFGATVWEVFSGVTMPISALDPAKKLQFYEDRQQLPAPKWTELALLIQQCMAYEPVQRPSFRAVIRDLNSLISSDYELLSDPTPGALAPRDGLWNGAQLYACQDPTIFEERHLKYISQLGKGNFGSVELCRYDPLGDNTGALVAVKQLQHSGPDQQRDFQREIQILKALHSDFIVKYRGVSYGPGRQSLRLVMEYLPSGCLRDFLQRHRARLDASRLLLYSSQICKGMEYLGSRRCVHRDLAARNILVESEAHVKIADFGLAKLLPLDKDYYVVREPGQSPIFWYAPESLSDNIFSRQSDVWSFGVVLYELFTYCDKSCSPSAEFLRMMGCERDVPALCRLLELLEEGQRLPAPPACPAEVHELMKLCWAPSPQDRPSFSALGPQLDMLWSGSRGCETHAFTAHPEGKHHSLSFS
# UniProt P29597: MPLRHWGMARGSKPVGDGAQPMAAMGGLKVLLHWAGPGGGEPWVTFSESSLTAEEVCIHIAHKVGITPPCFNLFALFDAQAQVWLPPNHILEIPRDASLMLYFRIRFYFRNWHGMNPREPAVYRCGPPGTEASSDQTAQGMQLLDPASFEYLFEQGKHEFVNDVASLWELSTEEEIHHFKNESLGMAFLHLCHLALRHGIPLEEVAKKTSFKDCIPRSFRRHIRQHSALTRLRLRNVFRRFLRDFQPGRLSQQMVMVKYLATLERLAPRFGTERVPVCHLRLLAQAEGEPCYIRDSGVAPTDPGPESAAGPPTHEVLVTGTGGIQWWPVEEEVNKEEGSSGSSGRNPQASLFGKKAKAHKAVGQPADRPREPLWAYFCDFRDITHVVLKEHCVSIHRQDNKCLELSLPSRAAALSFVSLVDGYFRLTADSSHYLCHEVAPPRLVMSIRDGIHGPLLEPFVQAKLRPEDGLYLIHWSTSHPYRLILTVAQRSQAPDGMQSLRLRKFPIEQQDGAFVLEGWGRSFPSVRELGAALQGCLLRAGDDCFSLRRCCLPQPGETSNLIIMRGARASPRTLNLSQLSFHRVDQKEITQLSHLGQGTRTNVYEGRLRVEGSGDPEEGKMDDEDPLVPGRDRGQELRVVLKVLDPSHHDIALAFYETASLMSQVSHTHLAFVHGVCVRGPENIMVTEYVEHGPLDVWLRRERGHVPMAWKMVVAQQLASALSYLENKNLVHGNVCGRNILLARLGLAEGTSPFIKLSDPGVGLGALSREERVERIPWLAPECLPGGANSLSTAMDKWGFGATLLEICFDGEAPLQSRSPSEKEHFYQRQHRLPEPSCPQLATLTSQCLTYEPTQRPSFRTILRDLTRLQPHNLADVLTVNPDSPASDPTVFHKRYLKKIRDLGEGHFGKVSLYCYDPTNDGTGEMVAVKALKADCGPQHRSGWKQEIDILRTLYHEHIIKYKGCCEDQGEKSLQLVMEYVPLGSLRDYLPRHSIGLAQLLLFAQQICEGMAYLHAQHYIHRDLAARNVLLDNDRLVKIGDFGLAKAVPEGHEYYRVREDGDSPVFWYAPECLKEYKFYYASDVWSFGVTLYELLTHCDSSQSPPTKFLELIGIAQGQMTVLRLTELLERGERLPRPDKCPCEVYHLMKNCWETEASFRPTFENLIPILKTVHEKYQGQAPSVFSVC
# Columns and labels:
# JAK3 = JAK3 (Homo sapiens (Human), UniProt P52333); experiment: JAK3 enzyme assay (Assay Example^b 1)
# JAK2 = JAK2 (Homo sapiens (Human), UniProt O60674); experiment: JAK2 enzyme assay (Assay Example^b 1)
# Tyk2 [1] = target: T1, Tyk2 (Homo sapiens (Human), UniProt P29597); experiment: Tyk2 enzyme assay (Assay Example^b 1)
# JAK1 = JAK1 (Homo sapiens (Human), UniProt P23458); experiment: JAK1 enzyme assay (Assay Example^b 1)
# Tyk2 [2] = target: T1, Tyk2; experiment: Enzyme assay (Assay Example^a 1), Tyk2; format: biochemical; conditions: ATP 100 μM; Table^a 154; read-out: IC50 (μM) TYK2
# [3] = IC50 (μM) JAK3, Table^b 80, ATP 100 μM
# [4] = IC50 (μM) JAK2, Table^b 80, ATP 100 μM
# [5] = IC50 (μM) TYK2, Table^b 80, ATP 100 μM
# [6] = IC50 (μM) JAK1, Table^b 80, ATP 100 μM
smiles,measurement,setting,value
O=c1ccn(C2CCN(Cc3csc([N+](=O)[O-])c3)CC2)c2c1cnc1[nH]ccc12 [compound 79],IC50,JAK3; [3],0.094 µM
O=c1[nH]c(=O)n(C2CCN(Cc3ccccc3)CC2)c2c1cnc1[nH]ccc12 [compound 49],IC50,JAK3; [3],> 1 µM
CO[C@H]1CC[C@H](n2ccc(=O)c3cnc4[nH]ccc4c32)CC1 [compound 70],IC50,JAK2; [4],> 1 µM
N#CCCCN1CCC(n2c(=O)[nH]c(=O)c3cnc4[nH]ccc4c32)CC1 [compound 98],IC50,"JAK3; IC50 (μM) JAK3, ATP 100 μM",> 1 µM
O=c1[nH]c(=O)n([C@H]2CC[C@H](CN3CC(O)(C(F)(F)F)C3)CC2)c2c1cnc1[nH]ccc12 [compound 129],IC50,Tyk2 [1]; IC50 (μM) TYK2,0.36 µM
same,IC50,JAK1; IC50 (μM) JAK1,0.0079 µM
same,IC50,"JAK3; IC50 (μM) JAK3, ATP 100 μM",0.81 µM
CCOC(=O)c1ccc(CN2CCC(n3ccc(=O)c4cnc5[nH]ccc5c43)CC2)o1 [compound 73],IC50,JAK3; [3],> 1 µM
C[C@@H]1CCN(S(=O)(=O)CC(F)(F)F)C[C@@H]1n1ccc(=O)c2cnc3[nH]ccc3c21 (racemic) [compound 11],IC50,"JAK1; IC50 (μM) JAK1, Table^b 78, ATP 100 μM",0.012 µM
same,IC50,"JAK3; IC50 (μM) JAK3, Table^b 78, ATP 100 μM",0.034 µM
C[C@@H]1CCN(Cc2cccc(C(F)(F)F)c2)C[C@@H]1n1ccc(=O)c2cnc3[nH]ccc3c21 (racemic) [compound 39],IC50,Tyk2 [1]; [5],> 1 µM
same,IC50,JAK1; [6],0.048 µM
same,IC50,JAK2; [4],0.15 µM
O=c1ccn(C2CCN(Cc3ccc([N+](=O)[O-])o3)CC2)c2c1cnc1[nH]ccc12 [compound 72],IC50,Tyk2 [1]; [5],0.88 µM
same,IC50,JAK1; [6],0.0098 µM
same,IC50,JAK2; [4],0.33 µM
CC(CO)(CO)Cn1c(=O)c2cnc3[nH]ccc3c2n(C2CCCCC2)c1=O [compound 151],IC50,"Tyk2 [1]; IC50 (μM) TYK2, ATP 100 μM",> 1 µM
O=c1[nH]c(=O)n(C2CCN(CCNCC3CC3)CC2)c2c1cnc1[nH]ccc12 [compound 110],IC50,"Tyk2 [1]; IC50 (μM) TYK2, ATP 100 μM",> 1 µM
same,IC50,"JAK3; IC50 (μM) JAK3, ATP 100 μM",> 1 µM
O=c1[nH]c(=O)n(C2CCCCC2)c2c1cnc1[nH]ccc12 [compound 53],IC50,Tyk2 [1]; [5],0.04 µM
same,IC50,JAK1; [6],0.0074 µM
FC(F)(F)c1cccc(CN2CCC(c3nnn4cnc5[nH]ccc5c34)CC2)c1 [compound 39],IC50,Tyk2 [2],> 1 µM
N#CCCN(CCC#N)CC1CCC(n2c(=O)[nH]c(=O)c3cnc4[nH]ccc4c32)CC1 (stereo not shown) [compound 116],IC50,"JAK3; IC50 (μM) JAK3, ATP 100 μM",0.036 µM
O=c1ccn(C2CCN(Cc3cc(Br)cs3)CC2)c2c1cnc1[nH]ccc12 [compound 82],IC50,JAK1; IC50 (μM) JAK1,0.0021 µM
NCCN1CCC(n2c(=O)[nH]c(=O)c3cnc4[nH]ccc4c32)CC1 [compound 88],IC50,"JAK3; IC50 (μM) JAK3, ATP 100 μM",> 1 µM
O=c1[nH]c(=O)n([C@H]2CC[C@H](CNCC3(O)CCCCC3)CC2)c2c1cnc1[nH]ccc12 [compound 126],IC50,"Tyk2 [1]; IC50 (μM) TYK2, ATP 100 μM",> 1 µM
same,IC50,"JAK2; IC50 (μM) JAK2, ATP 100 μM",0.36 µM
C[C@@H]1CCN(C(=O)OC(C)(C)C)C[C@@H]1n1ccc(=O)c2cnc3[nH]ccc3c21 (racemic) [compound 45],IC50,JAK3; [3],0.04 µM
O=c1c2cnc3[nH]ccc3c2n(C2CCCCC2)c(=O)n1CCN1CCOCC1 [compound 142],IC50,"JAK2; IC50 (μM) JAK2, ATP 100 μM",> 1 µM
C[C@@H]1CCN(C(=O)c2ccccc2C(F)(F)F)C[C@@H]1n1ccc(=O)c2cnc3[nH]ccc3c21 (racemic) [compound 30],IC50,Tyk2 [1]; [5],> 1 µM
same,IC50,JAK1; [6],0.18 µM
same,IC50,JAK2; [4],> 1 µM
O=c1c2cnc3[nH]ccc3c2n(C2CCCCC2)c(=O)n1C1CCCC1 [compound 148],IC50,"JAK3; IC50 (μM) JAK3, ATP 100 μM",> 1 µM
Cc1cn([C@H]2CN(Cc3ccccc3)CC[C@H]2C)c2c(cnc3[nH]ccc32)c1=O (racemic) [compound 23],IC50,Tyk2 [1]; [5],> 1 µM
same,IC50,JAK3; [3],0.1 µM
C[C@@H]1CCN(Cc2ccccc2)C[C@@H]1n1ccc(=O)c2cnc3[nH]cc(Cl)c3c21 (racemic) [compound 22],IC50,JAK3; [3],0.37 µM
O=c1[nH]c(=O)n([C@H]2CC[C@H](CNCCN3CCOCC3)CC2)c2c1cnc1[nH]ccc12 [compound 123],IC50,"Tyk2 [1]; IC50 (μM) TYK2, ATP 100 μM",> 1 µM
same,IC50,"JAK2; IC50 (μM) JAK2, ATP 100 μM",> 1 µM
same,IC50,"JAK3; IC50 (μM) JAK3, ATP 100 μM",> 1 µM
O=C1NCc2cnc3[nH]ccc3c2N1C1CCN(Cc2cncs2)CC1 [compound 66],IC50,JAK3; [3],> 1 µM
c1cc2c(ncn3nnc(C4CCC(N5CCOCC5)CC4)c23)[nH]1 (stereo not shown) [compound 124],IC50,Tyk2 [2],0.55 µM
C[C@@H]1CCN(S(=O)(=O)c2cccc(C(F)(F)F)c2)C[C@@H]1n1ccc(=O)c2cnc3[nH]ccc3c21 (racemic) [compound 33],IC50,Tyk2 [1]; IC50 (μM) TYK2,0.4 µM
same,IC50,JAK1; IC50 (μM) JAK1,0.0098 µM
same,IC50,JAK3; [3],0.096 µM
O=c1ccn(C2CCN(Cc3ccc(C(F)(F)F)nc3)CC2)c2c1cnc1[nH]ccc12 [compound 76],IC50,JAK3; [3],> 1 µM
COCCNC[C@H]1CC[C@H](n2c(=O)[nH]c(=O)c3cnc4[nH]ccc4c32)CC1 [compound 131],IC50,"JAK3; IC50 (μM) JAK3, ATP 100 μM",> 1 µM
N#CCCN1CCC(n2c(=O)[nH]c(=O)c3cnc4[nH]ccc4c32)CC1 [compound 100],IC50,"JAK3; IC50 (μM) JAK3, ATP 100 μM",> 1 µM
O=c1[nH]c(=O)n([C@H]2CC[C@H](CN3CC(O)C3)CC2)c2c1cnc1[nH]ccc12 [compound 113],IC50,"JAK3; IC50 (μM) JAK3, ATP 100 μM",> 1 µM
C[C@@H]1CCN(C(=O)c2ccc(C(F)(F)F)cc2)C[C@@H]1n1ccc(=O)c2cnc3[nH]ccc3c21 (racemic) [compound 34],IC50,JAK3; [3],> 1 µM
